ClpP mod = qHTS Assay for Activators of ClpP; ATP-dependent Clp protease proteolytic subunit (Bacillus subtilis (strain 168)), P80244; purified B. subtilis ClpP, FRET peptide cleavage, 20 min; Potency, µM (series often up to 57.5 µM), without a hit: top-dose activity change, negative = active; 1.9% of 340,000 active; AID 651965, 2013; active = well fitted falling curve with a large enough effect; inconclusive = small, poorly fitted or top-dose-only effect; inactive = no such curve, though single readings can be large or run the other way; also: potency is read from the fitted curve at half-maximal effect; the source files actives as falling curves though it sought activators and does not explain the sign; nearly all actives have a fitted effect of over 65% in size
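ClpP 10 microg/mL final, pH 8 Tris/KCl buffer with BSA, glycerol, Tween-20; compound pinned in; FRET-FV substrate; RT 20 min; Ex320/Em430; ΔFRET vs ADEP 5.8 microM, DMSO, no enzyme.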
Nrf2 inh = blocks Nrf2 signaling; Potency, µM (top dose mostly 46 µM), for the others: at the highest dose activity change, negative = inhibition, usual class: inhibitors; A549 ARE-Fluc reporter, luciferase luminescence, 18-24 h; 2.1% of 360,000 active; also: potency is read from the fitted curve at half-maximal effect; % is scaled to controls: 0 for no effect and ±100 for the full control effect; nearly all actives have a fitted effect of over 60% in size
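Concentration-response testing used A549 ARE_Fluc cells at 5000 cells/well. Following an 18-24 h compound incubation, viability was read by fluorescence (Ex 405/Em 525) and luciferase output by luminescence.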
Nrf2 ARE act = activators of Nrf2 (ARE) signaling; Potency, µM (doses to about 46.1 µM), for inactives: at the highest dose activation, actives largely listed as activators; 0.31% of 410,000 active; AID 624171; AREc32 ARE-luciferase reporter (MCF7-derived line), luminescence, 24 h; also: potency is read from the fitted curve at half-maximal effect; % of control where 0% means no effect; nearly all actives have a fitted effect of over 65% in size
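Steps: seed AREc32_Fluc cells (1000/well, 5% FBS OPTI-MEM); incubate overnight at 37 deg C; add 23 nL compound; incubate 24 hr; add Steady-Glo; hold 30 min RT; read luminescence.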
miR-21 FLuc = miR-21 reporter, rising signal | HeLa miR-21 FLuc reporter, luciferase, 48 h | Potency, µM (top dose mostly 38.3 µM), inactives show at the highest dose reporter change, positive = more light | 340,000 tested, under 10 active | AID 2288; active = well fitted rising curve with a large enough effect; inconclusive = small, poorly fitted or top-dose-only effect; inactive = no such curve, though single readings can be large or run the other way;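 note: % of control where 0% means no effect; miR-21 action dims this reporter so a rising signal means less miR-21 action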
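HeLa cells endogenously expressing miR-21, stably carrying CMV-driven firefly luciferase with a downstream miR-21 binding site, 2000 cells/well. Titrations up to approximately 40 uM, 48 hours; luciferase luminescence read.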
A549 viability = counter-screen for Nrf2 inhibitors: cytotoxicity in A549 cells; Potency, µM (series often up to 46 µM), for the others: at the highest dose activity change, negative = cytotoxicity, hits mostly inhibitors; 0.16% of 390,000 active; A549 ARE-Fluc cells, CellTiter-Fluor viability, 18-24 h; also: potency is read from the fitted curve at half-maximal effect; % is scaled to controls: 0 for no effect and ±100 for the full control effect
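A549 ARE-Fluc cells in 5% FBS OPTI-MEM, 5000 cells/well, rested 2 h then exposed to compounds in concentration-response for 18-24 h at 37 °C. Viability by CellTiter-Fluor fluorescence (Ex 405/Em 525) after 30 min; luciferase luminescence (BugLite, 15 min, RT) read afterwards.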
IL-2 act = activators of IL-2. IL-2 activation reporter assay, cell-based qHTS; stimulated with anti-CD3/CD4/CD28 beads; in transgenic mouse T cells. activation, % (series mostly up to about 46 µM). 0.065% of 360,000 active. AID 652025; in the data active = activation above about 50%; inconclusive = mostly about 30% to 49%; also: 0% is about no effect
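Quantitative HTS in unstimulated transgenic mouse T cells, with memory T cells as non-tolerant control and PMA/ionomycin as tolerance-bypass control. Compound pretreatment lasted 60 minutes before 18 h bead stimulation; EGFP/DsRed fluorescence read.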
Active calls of the source: *. A selection: hits, their analogues and other compounds. The true share with any hit is near 3.7%. Unless noted, calls follow the shape of the dose curve; as a rule, active = well fitted curve in the direction sought with a large enough effect; inconclusive = small, poorly fitted or top-dose-only effect, or another doubt; inactive = no such curve, though single readings can be large; an effect the other way counts as inactive or inconclusive.

What do the screens show for `CCOc1ccccc1NC(=O)CSc1nc2ccccc2c2nc(CCn3cncc3C)nn12`?
ClpP mod: 0%; Nrf2 ARE act: -1%; miR-21 FLuc: 27%; A549 viability: -24%

What do the screens show for `COc1ccc(-c2nc3ccccc3[nH]2)cc1`?
ClpP mod: 25µM*; Nrf2 inh: inconclusive; Nrf2 ARE act: -2%; miR-21 FLuc: 11%; A549 viability: 4%; IL-2 act: -2

What do the screens show for `Cc1nnsc1-c1nc2ccccc2[nH]1`?
ClpP mod: 25µM*; Nrf2 inh: 0%; Nrf2 ARE act: 0%; miR-21 FLuc: -7%; A549 viability: -7%; IL-2 act: 0

What do the screens show for `Cc1[nH]c2ccccc2c1-c1nc2ccccc2[nH]1`?
ClpP mod: 16µM*; Nrf2 inh: 4%; Nrf2 ARE act: 4%; miR-21 FLuc: -25%; A549 viability: -6%; IL-2 act: -3

Results for Cc1ccc(-c2nc3ccccc3[nH]2)s1 ?
ClpP mod: -2%; Nrf2 inh: inconclusive; Nrf2 ARE act: 4%; miR-21 FLuc: -20%; A549 viability: -3%; IL-2 act: 0

How did c1ccc(-c2nc3ccccc3[nH]2)cc1 do in these assays?
ClpP mod: 4%; Nrf2 inh: inconclusive; Nrf2 ARE act: 3%; miR-21 FLuc: -46%; A549 viability: 3%; IL-2 act: -1

Results for COc1cccc(N2CCN(C(=O)c3ccc(=O)oc3)CC2C)c1 (stereo not drawn) ?
ClpP mod: 28µM*; Nrf2 inh: -2%; Nrf2 ARE act: 3%; miR-21 FLuc: 2%; A549 viability: -1%; IL-2 act: 0

What do the screens show for `Cc1cccc(N2CCN(C(=O)c3ccc4nc(-c5ccco5)c(-c5ccco5)nc4c3)CC2C)c1` (stereo not drawn)?
ClpP mod: -1%; Nrf2 inh: 21µM*; Nrf2 ARE act: -2%; miR-21 FLuc: 25%; A549 viability: inconclusive; IL-2 act: -2

How did COc1cccc(NC(=O)N2CCN(c3cccc(C)c3)C(C)C2)c1 (stereo not drawn) do in these assays?
ClpP mod: 0%; Nrf2 inh: -1%; Nrf2 ARE act: 2%; miR-21 FLuc: -12%; A549 viability: -2%; IL-2 act: 1

What do the screens show for `COc1cccc(NC(=O)c2cccc(N3C(=O)C4C5C=CC(C5)C4C3=O)c2)c1` (stereo not drawn)?
ClpP mod: -4%; Nrf2 inh: 18µM*; Nrf2 ARE act: 0%; miR-21 FLuc: 2%; A549 viability: inconclusive; IL-2 act: 0

Results for CCOc1ccc(CCNC(=O)c2sc3ncccc3c2-n2c(C)ccc2C)cc1 ?
ClpP mod: 1%; Nrf2 ARE act: 5%; miR-21 FLuc: inconclusive; A549 viability: 2%

How did CCCCc1c(C)nc2c(-c3ccc(OC)cc3)c(C)[nH]n2c1=O do in these assays?
ClpP mod: -4%; Nrf2 inh: 21µM*; Nrf2 ARE act: 2%; miR-21 FLuc: 0%; A549 viability: -16%

How did Cc1nc2c(-c3ccccc3)c(C)[nH]n2c(=O)c1Cc1ccccc1 do in these assays?
Nrf2 inh: inconclusive; Nrf2 ARE act: -1%; miR-21 FLuc: 24%; A549 viability: -18%; IL-2 act: 1

Results for Cc1cccc(Cc2c(C)nc3c(-c4ccccc4)c(C)[nH]n3c2=O)c1 ?
ClpP mod: 4%; Nrf2 inh: 5.8µM*; Nrf2 ARE act: 1%; miR-21 FLuc: inconclusive; A549 viability: inconclusive

Results for COc1ccc(-c2c(C)[nH]n3c(=O)c(Cc4ccccc4)c(C)nc23)cc1OC ?
Nrf2 inh: inconclusive; Nrf2 ARE act: -1%; miR-21 FLuc: 21%; A549 viability: -12%; IL-2 act: -1

Random excerpt: two records from the list
How did c1ccc(-c2nc3ccccc3[nH]2)cc1 do in these assays?
ClpP mod: 4%; Nrf2 inh: inconclusive; Nrf2 ARE act: 3%; miR-21 FLuc: -46%; A549 viability: 3%; IL-2 act: -1

How did Cc1nc2c(-c3ccccc3)c(C)[nH]n2c(=O)c1Cc1ccccc1 do in these assays?
Nrf2 inh: inconclusive; Nrf2 ARE act: -1%; miR-21 FLuc: 24%; A549 viability: -18%; IL-2 act: 1
